Measurements: publication PMC5072635 (PLoS ONE, 2016)

Experiments:
Format in all cases: cell-based, human
[1] = test system: AKT phosphorylation at threonine 308 and serine 473; assay: TCR-induced AKT phosphorylation by immunoblotting in APBTs; conditions: 1% HSA alone, baseline and all time points post stimulation
Procedure: (§1) APBTs were treated with 0.1% ethanol control or 10 μg/ml GML resuspended in serum free media or media supplemented with 1% HSA. The cells were then incubated on ice with 2 μg/ml anti-CD3 for 30 minutes. Cells were then warmed at 37°C for 10 minutes, stimulated using IgG crosslinking antibody for various times and HSA was washed away via centrifugation. Cells were then lysed with 2X sample buffer, heated to 95°C, and sonicated.
(§2) Cell lysates were separated by polyacrylamide gel electrophoresis and transferred to PVDF. The membranes were blocked in 0.5X SEA BLOCK blocking buffer diluted in PBS. Primary antibodies were incubated overnight at 4°C. […] Immunoblot band intensity was quantified using Odyssey’s v3.0 software with the intensity of the phospho-specific antibody normalized to the intensity of the GAPDH antibody. […]
Fig 2 HSA restores AKT phosphorylation at both threonine 308 and serine 473 residues in GML treated cells. […] Phosphorylation of AKT at threonine 308 and serine 473 were assessed by immunoblotting. Representative blots (A) and immunoblot quantification (B) are shown from 5 independent experiments with different individual donors. # denotes p<0.05 in Student t’s test comparing ethanol and GML treated cells in serum free media. * denotes p<0.05 in Student t’s test comparing GML treated cells in serum free RPMI with GML treated cells in 1% HSA.

[2] = test system: p85 regulatory domain of PI3K; assay: TCR-induced PI3K p85 phosphorylation by immunoblotting in APBTs; conditions: 1% HSA alone
Procedure: as §1
as §2, with “4°C. Secondary antibodies were incubated with the membrane for 30 minutes at room temperature and then imaged using Licor Odyssey (Lincoln, NE, USA).” for “4°C.”
Supplementary file pone.0165083.s003.pdf: S3 Fig HSA and non-fatty acid free HSA have independent effects on T cell signaling and function. […] Phosphorylation of p85 regulatory domain of PI3K was assessed by immunoblotting with representative blot shown. […] Extracellular cytokine production for IFN-γ (top left), IL-2 (top right), IL-10 (bottom left), or TNFα (bottom right) was measured by ELISA. […]

IFN-γ production = assay: ELISA of TCR-induced IFN-γ production by APBTs; conditions: ethanol control with HSA alone
Procedure: (§3) 0.2% Ethanol control or various doses of GML were added to APBTs in serum free media or media supplemented with between 0.2% to 2% HSA. The cells were then stimulated with plate-bound 2 μg/ml of anti-CD3 (Biolegend) for 24 hours. Protein concentrations of IL-2, IFN-γ, IL-10, and TNF-α in the media supernatants were measured by standard TMB ELISA.
(§4) Fig 6 HSA differentially restores cytokine production in GML treated cells. APBTs were suspended in serum free RPMI or RPMI supplemented with 2%, 1% or 0.2% HSA and were treated with 0.2% ethanol vehicle control, 10 μg/ml, or 20 μg/ml of GML. Cells were plated on 2 μg/ml anti-CD3 coated plates for 24 hours. Extracellular cytokine production for (A) IFN-γ, (B) IL-2, (C) IL-10, or (D) TNFα was measured by ELISA in 3 independent experiments with different human donors. To statistically confirm that GML is suppressing cytokine production without serum, Student t’s test was done by comparing EtOH treated groups with GML treated groups under the same serum free environment, indicated by the black bars, with # denoting p<0.05. […]

IL-10 production = assay: ELISA of TCR-induced IL-10 production by APBTs; conditions: ethanol control with HSA alone
Procedure: as §3, §4

HSA: fatty acid free human serum albumin (Sigma)
AKT phosphorylation vs ethanol control [1]: did not have altered AKT phosphorylation
phosphorylation of PI3K p85 regulatory domain following TCR stimulation [2]: decreased the phosphorylation
IFN-γ production vs ethanol control in serum free group (IFN-γ production): significant increase
IL-10 production vs ethanol control in serum free group (IL-10 production): decrease
